The list shows a part of the results, in another mix than the full data. Calls of active or inactive are those of the source. No stated cut-off is given here; in the data, active means activation fold above about 2; inactive means the rest.
Biological target: Alkaline phosphatase, placental type (Homo sapiens) (UniProt P05187)
Assay: activation of human placental alkaline phosphatase – biochemical, luminescence, HTS (AID 696)
Details: purified PLAP enzyme, luminescent substrate read-out; at 20 µM; active compounds read high

By UniProt entry, the sequences of proteins in these tests, tags left out.
UniProt P05187, whole entry: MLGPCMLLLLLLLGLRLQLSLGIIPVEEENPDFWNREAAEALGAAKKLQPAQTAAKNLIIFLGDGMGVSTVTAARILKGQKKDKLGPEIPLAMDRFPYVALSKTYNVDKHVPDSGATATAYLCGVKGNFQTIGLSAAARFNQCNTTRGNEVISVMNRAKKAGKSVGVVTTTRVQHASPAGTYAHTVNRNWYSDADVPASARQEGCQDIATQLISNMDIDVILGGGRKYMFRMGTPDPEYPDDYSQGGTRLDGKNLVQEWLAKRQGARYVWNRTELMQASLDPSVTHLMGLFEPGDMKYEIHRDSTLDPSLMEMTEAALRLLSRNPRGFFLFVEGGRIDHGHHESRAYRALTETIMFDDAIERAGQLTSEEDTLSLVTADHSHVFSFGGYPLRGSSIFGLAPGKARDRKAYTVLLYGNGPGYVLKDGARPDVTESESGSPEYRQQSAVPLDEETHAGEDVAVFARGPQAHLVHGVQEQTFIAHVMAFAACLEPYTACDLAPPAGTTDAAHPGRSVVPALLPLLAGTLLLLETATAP

CP(=O)(NC(=O)Nc1ccccc1)Oc1ccccc1 (configuration not stated) was tested. Which activation fold did it give?
The activation fold was inactive: 1.1.

CP(=O)(Nc1ccccn1)Oc1ccc(Cl)cc1 (configuration not stated) was tested. Which activation fold did it give?
Its activation fold is inactive: 1.

CCOP(C)(=S)SCC(=O)NC(C)C(=O)O (configuration not stated) was tested. Which activation fold did it give?
Its activation fold is inactive: 1.2.

With CP(=S)(Nn1cnnc1)Oc1ccccc1 (configuration not stated) as the compound, how does the activation fold read?
The activation fold was inactive: 0.7.

Which activation fold does the source give for COc1ccc(OP(C)(=O)Nc2cccc(F)c2)cc1 (configuration not stated) here?
Its activation fold is inactive: 1.1.

Which activation fold does the source give for COc1ccccc1OP(C)(=O)Nc1ccc(C)cc1 (configuration not stated) here?
The activation fold was inactive: 0.9.

How did the activation fold turn out when Cc1ccc(NP(C)(=O)Oc2ccccc2)c(C)c1 (configuration not stated) was run?
Its activation fold is inactive: 1.4.

Which activation fold does the source give for Cc1cc(C)cc(OP(C)(=O)Nc2ccc(C)cc2C)c1 (configuration not stated) here?
Its activation fold is inactive: 1.2.

Cc1ccc(C)c(NP(C)(=O)Oc2ccccc2)c1 (configuration not stated) was tested. Which activation fold did it give?
Its activation fold is inactive: 1.1.

With Cc1cc(C)cc(OP(C)(=O)Nc2ccccn2)c1 (configuration not stated) as the compound, how does the activation fold read?
Its activation fold is inactive: 0.7.

Which activation fold does the source give for COc1ccccc1OP(C)(=O)Nc1c(C)cccc1C (configuration not stated) here?
Its activation fold is inactive: 0.8.

With Cc1nc2ccc3ccccc3c2s1.O=[N+]([O-])c1cc([N+](=O)[O-])c(O)c([N+](=O)[O-])c1 as the compound, how does the activation fold read?
Its activation fold is inactive: 0.8.

CCOP(C)(=S)SCC(=O)NC(C)(CC)C(=O)O (configuration not stated) was tested. Which activation fold did it give?
Its activation fold is inactive: 1.1.

How did the activation fold turn out when Cc1ccccc1NP(C)(=O)Nc1ccccc1C was run?
Its activation fold is inactive: 0.9.

How did the activation fold turn out when CN(C)CCOC(=O)C(O)(c1ccccc1)C1CCCCC1 (configuration not stated) was run?
Its activation fold is inactive: 1.

COc1ccc(OP(C)(=O)Nc2cccc(Br)c2)cc1 (configuration not stated) was tested. Which activation fold did it give?
Its activation fold is inactive: 0.9.

Which activation fold does the source give for CP(=O)(Nc1ccccc1)Oc1ccc(F)cc1 (configuration not stated) here?
Its activation fold is inactive: 1.1.

CP(=O)(Nc1ccccc1F)Oc1ccccc1 (configuration not stated) was tested. Which activation fold did it give?
Its activation fold is inactive: 0.8.

With COc1ccc(OP(C)(=O)Nc2ccccn2)cc1 (configuration not stated) as the compound, how does the activation fold read?
The activation fold was inactive: 0.9.

CN(C)CCOC(=O)C(O)(c1ccccc1)C1CCCC1 (configuration not stated) was tested. Which activation fold did it give?
The activation fold was inactive: 1.1.

CP(=O)(Nc1ccccn1)Oc1ccccc1 (configuration not stated) was tested. Which activation fold did it give?
Its activation fold is inactive: 0.8.

COc1ccccc1OP(C)(=O)Nc1ccc(C)cc1C (configuration not stated) was tested. Which activation fold did it give?
Its activation fold is inactive: 1.

How did the activation fold turn out when CCc1ccc(OP(C)(=O)O)cc1 was run?
Its activation fold is inactive: 1.7.

For Cc1c(NP(C)(=O)Oc2ccc(C(C)C)cc2)c(=O)n(-c2ccccc2)n1C (configuration not stated), which activation fold is on record?
Its activation fold is inactive: 1.4.

With COc1ccccc1OP(C)(=O)Nc1ccc(C)c(C)c1 (configuration not stated) as the compound, how does the activation fold read?
Its activation fold is inactive: 1.

Cc1nc2ccc3ccccc3c2o1.O=[N+]([O-])c1cc([N+](=O)[O-])c(O)c([N+](=O)[O-])c1 was tested. Which activation fold did it give?
The activation fold was inactive: 1.

Which activation fold does the source give for CP(=O)(OC12CC3CC(CC(C3)C1)C2)OC12CC3CC(CC(C3)C1)C2 here?
Its activation fold is inactive: 1.6.

How did the activation fold turn out when COc1ccccc1OP(C)(=O)Nc1c(C)n(C)n(-c2ccccc2)c1=O (configuration not stated) was run?
The activation fold was inactive: 0.9.

For CP(=O)(Oc1ccccc1)N1CCOC1=O (configuration not stated), which activation fold is on record?
Its activation fold is inactive: 0.9.

Which activation fold does the source give for CCN(CC)CC(O)COC(=O)C(O)(c1ccccc1)C1CCCCC1 (configuration not stated) here?
Its activation fold is inactive: 1.3.

Which activation fold does the source give for CC(C)(C)c1ccc(OP(C)(=O)O)cc1 here?
The activation fold was inactive: 1.3.

How did the activation fold turn out when CP(=O)(Nc1ccc(Cl)cc1)Oc1ccc(F)cc1 (configuration not stated) was run?
Its activation fold is inactive: 1.1.

Source: PubChem BioAssay AID696 (Sanford-Burnham Center for Chemical Genomics, 2007)
